Test results published in ChEMBL document CHEMBL1144934, “Efficacious and orally bioavailable thrombin inhibitors based on a 2,5-thienylamidine at the P1 position: discovery of N-carboxymethyl-d-diphenylalanyl-l-prolyl[(5-amidino-2-thienyl)methyl]amide” (J Med Chem, 2003).

Biological target: Prothrombin (Homo sapiens, UniProt P00734)
Experiment: In vitro inhibition constant (Ki) against human thrombin

SMILES: CC1CNc2c(cccc2S(=O)(=O)N[C@@H](CCCNC(=N)N)C(=O)N2CC[C@@H](C)C[C@@H]2C(=O)O)C1 (stereo partly specified) [ARGATROBAN]
- Ki: 4 nM
